pEC50: −log10 of the molar value.
Target: T1, human Pregnane X receptor (hPXR) (Homo sapiens, UniProt O75469)
T1 construct: gene NR1I2
Assay: CYP3A4-luciferase reporter transactivation in transfected HepG2 cells (also LS180, EC50 […]); GAL4-LBD panel; mammalian two-hybrid co-repressor dissociation; site-directed mutagenesis

The chains behind the UniProt entries cited, without tags or fusion partners. Where a name states a change or a piece, a line headed by the entry shows the natural chain unless it says otherwise.
UniProt O75469: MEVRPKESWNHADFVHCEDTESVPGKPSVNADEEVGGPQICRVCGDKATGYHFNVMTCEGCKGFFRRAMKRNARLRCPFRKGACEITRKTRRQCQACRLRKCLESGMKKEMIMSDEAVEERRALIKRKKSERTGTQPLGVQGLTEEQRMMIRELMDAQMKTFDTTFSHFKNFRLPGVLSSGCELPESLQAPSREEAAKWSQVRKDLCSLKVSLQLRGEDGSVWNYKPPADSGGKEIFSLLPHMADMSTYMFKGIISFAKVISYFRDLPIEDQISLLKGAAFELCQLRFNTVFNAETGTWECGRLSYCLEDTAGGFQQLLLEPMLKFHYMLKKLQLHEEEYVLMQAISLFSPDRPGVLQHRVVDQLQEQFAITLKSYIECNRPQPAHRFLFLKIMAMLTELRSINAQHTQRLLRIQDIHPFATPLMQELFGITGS

## C=C(C)[C@@H]1CCC(C)=C[C@H]1c1c(O)cc(CCCCC)cc1O [CBD, Cannabidiol]
  pEC50: 5.29
